Measured values published in US8623859B2, “Bradykinin B1 antagonists” (Evotec AG, priority 2008, dated 2014).

Legend:
Type in all cases: cell-based
[1] = target: T1, human B1 (Homo sapiens, UniProt P46663); assay: Calcium flux assay for Bradykinin B1 antagonist, CHO-K1 cell line expressing human B1
T1 construct: host or cells: CHO-K1
T1 sequence (P46663 1-353): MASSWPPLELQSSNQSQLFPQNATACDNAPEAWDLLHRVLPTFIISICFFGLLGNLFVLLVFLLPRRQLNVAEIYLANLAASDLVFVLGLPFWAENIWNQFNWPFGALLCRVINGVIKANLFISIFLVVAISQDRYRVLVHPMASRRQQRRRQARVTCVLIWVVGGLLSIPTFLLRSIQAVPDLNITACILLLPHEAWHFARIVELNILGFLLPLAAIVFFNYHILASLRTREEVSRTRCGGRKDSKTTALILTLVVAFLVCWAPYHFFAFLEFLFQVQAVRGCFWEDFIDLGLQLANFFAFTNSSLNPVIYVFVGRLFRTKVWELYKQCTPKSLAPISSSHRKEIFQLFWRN
Method: Calcium Flux Assay for Bradykinin B1 Antagonist
(§1) The potency to inhibit the Bradykinin B1 receptors was determined for the compounds of this invention in a cell-based fluorescent calcium-mobilization assay. The assay measures the ability of test compounds to inhibit Bradykinin B1 receptor agonist-induced increase of intracellular free Ca^2+ in cell lines expressing B1.
(§2) Specifically, calcium indicator-loaded cells are pre-incubated in the absence or presence of different concentrations of test compounds followed by the stimulation with a selective B1 receptor agonist peptide. The change of the intracellular Ca^2+ concentration is monitored with a specifically designed fluorescent plate reader (FlexStation, Molecular Devices).
(§3) CHO-K1 cell line expressing human B1 was purchased from Euroscreen (Gosselies, Belgium, with reference name hBl-D1). CHO-K1 cell lines expressing rat B1 or mouse B1 were established in the following way: the full-length receptor-coding cDNA clones were obtained by PCR performed on rat or mouse brain cDNAs. The respective cDNAs were cloned into an expression vector under the control of a CMV promotor. The resultant plasmids were introduced into CHO-K1 cells with liposome technology (FuGENE; Roche Diagnostics, Basel), according to the standard protocols described by the manufacturer. […]

[2] = target: T2, rat B1 (Rattus norvegicus, UniProt P97583); assay: Calcium flux assay, CHO-K1 cell line expressing rat B1
T2 construct: the full-length receptor-coding cDNA clones were obtained by PCR performed on rat or mouse brain cDNAs; expressed in transfected cells; host or cells: CHO-K1
T2 sequence (P97583 1-337): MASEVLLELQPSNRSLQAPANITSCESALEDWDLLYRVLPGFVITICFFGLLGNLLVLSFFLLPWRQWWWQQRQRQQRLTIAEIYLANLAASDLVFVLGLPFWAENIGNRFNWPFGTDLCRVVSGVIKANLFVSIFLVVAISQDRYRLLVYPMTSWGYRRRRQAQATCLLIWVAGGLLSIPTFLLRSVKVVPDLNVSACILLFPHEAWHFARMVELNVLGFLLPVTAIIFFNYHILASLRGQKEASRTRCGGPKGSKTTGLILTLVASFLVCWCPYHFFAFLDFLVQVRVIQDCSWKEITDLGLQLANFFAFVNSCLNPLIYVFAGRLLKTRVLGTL
Method: as §1, §2
as §3, with “manufacturer. Cell lines expressing a Bradykinin receptor were selected in the culture medium containing 400 μg/ml G418 (Sigma).” for “manufacturer.”

[3] = target: T3, mouse B1 (Mus musculus, UniProt Q61125); assay: Calcium flux assay, CHO-K1 cell line expressing mouse B1
T3 construct: the full-length receptor-coding cDNA clones were obtained by PCR performed on rat or mouse brain cDNAs; expressed in transfected cells; host or cells: CHO-K1
T3 sequence (Q61125 1-334): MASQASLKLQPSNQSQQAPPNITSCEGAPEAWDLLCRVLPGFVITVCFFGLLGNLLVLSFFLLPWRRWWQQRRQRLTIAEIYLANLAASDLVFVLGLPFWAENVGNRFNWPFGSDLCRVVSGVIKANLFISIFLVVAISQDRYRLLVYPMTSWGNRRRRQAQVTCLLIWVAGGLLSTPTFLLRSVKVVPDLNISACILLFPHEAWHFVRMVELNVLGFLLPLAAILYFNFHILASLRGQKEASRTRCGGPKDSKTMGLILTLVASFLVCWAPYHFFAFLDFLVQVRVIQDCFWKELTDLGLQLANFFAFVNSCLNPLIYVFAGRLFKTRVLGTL
Method: as §1, §2
as §3, with “manufacturer. Cell lines expressing a Bradykinin receptor were selected in the culture medium containing 400 μg/ml G418 (Sigma).” for “manufacturer.”

[4] = read-out: typical EC50 of B1 agonist
[5] = read-out: typical IC50 of B1 antagonist

Substance | pEC50 [1, 4] | pEC50 [2, 4] | pEC50 [3, 4] | pIC50 [1, 5] | pIC50 [2, 5] | pIC50 [3, 5]
Lys-(Des-Arg)-Bradykinin | 8.70 | 6.60 | 8.00 | – | – | –
Lys-(Des-Arg-Leu)-Bradykinin | – | – | – | 9.30 | 7.92 | 7.82

pEC50, pIC50: −log10 of the molar value.
